Source: patent US8318898B2, “Synthetic peptides for use as inhibitors of neurotransmitter secretion and as inducers of cellular relaxation” (Universite de Lausanne, priority 2005, dated 2012)

Chains of the proteins cited; added tags and fusions are not shown. Residues count along the entry.
UniProt P09958, 108-794: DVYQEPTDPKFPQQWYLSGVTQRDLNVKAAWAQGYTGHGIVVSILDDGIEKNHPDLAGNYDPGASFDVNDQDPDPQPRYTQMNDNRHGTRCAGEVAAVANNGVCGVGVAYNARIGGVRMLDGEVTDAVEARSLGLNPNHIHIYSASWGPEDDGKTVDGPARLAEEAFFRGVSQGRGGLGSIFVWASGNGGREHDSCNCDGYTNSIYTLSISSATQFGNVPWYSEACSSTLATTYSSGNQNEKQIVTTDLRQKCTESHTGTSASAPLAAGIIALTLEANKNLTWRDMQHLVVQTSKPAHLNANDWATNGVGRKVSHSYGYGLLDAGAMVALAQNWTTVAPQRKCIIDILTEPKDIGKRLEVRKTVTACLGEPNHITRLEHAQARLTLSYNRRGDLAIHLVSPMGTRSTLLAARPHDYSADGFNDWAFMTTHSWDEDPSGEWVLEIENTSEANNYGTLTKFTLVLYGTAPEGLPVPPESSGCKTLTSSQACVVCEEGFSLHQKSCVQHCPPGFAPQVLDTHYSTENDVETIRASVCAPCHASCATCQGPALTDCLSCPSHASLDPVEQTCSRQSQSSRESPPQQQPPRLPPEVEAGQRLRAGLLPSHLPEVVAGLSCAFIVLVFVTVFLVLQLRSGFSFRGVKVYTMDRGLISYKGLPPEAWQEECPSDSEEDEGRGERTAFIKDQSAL
UniProt P23377, 108-793: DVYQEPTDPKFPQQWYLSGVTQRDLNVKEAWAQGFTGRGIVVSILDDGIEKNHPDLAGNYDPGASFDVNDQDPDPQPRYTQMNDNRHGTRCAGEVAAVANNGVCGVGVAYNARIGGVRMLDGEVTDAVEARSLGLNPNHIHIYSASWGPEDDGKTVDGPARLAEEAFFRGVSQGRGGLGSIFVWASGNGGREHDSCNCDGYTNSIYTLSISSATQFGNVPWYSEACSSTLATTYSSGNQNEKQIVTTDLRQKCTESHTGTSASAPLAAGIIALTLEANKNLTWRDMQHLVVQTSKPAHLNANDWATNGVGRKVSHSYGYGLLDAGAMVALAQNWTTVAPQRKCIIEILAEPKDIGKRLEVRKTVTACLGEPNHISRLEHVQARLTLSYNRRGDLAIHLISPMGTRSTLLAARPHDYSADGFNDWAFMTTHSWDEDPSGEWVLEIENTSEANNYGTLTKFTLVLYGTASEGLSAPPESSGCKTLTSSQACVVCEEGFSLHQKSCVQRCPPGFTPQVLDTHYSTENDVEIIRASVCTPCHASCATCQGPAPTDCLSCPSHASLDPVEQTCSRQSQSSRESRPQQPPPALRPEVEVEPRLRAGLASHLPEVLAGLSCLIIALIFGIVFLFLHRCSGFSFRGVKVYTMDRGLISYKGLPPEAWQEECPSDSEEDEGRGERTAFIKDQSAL

Experiments:
lung fibroblasts = experiment: Stressed collagen lattice contraction assay; format: cell-based, rat; conditions: peptide 60 minutes before gel release; compared to control gels and L-9K treated gels; preliminary
[1] = system: smooth muscle cell line (A7r5); experiment: Cell contraction/relaxation on silicon sheet, smooth muscle cells; format: cell-based
Description: Lung biopsy was obtained from a Sprague Dawley rat, divided in small tissue slices, placed in culture dishes, and maintained then in organ culture in Dulbecco's modified Eagle's medium (GibcoBRL, Life Technologie) containing 10% decomplemented fetal bovine serum (FBS) supplemented with 100 U/ml penicillin, 100 μg/ml streptomycin, 4 mM I-glutamine, at 37° C., in 5% CO2. Cells were maintained during 2-3 weeks (2-8 passages), replacing medium frequently. At confluence, cells were detached from the culture dish with 0.125% trypsin-EDTA mixture (Sigma) for 10 minutes at 37° C., resuspended in complete medium, and seeded over silicon-coated tissue culture dishes at 3.5×10^3 cells/cm^2. One to two days after, cells were treated with the appropriate peptide at 10 or 50 μM, and peptide-induced cell contraction/relaxation effect followed for 1-3 hours by live videomicroscopy. A smooth muscle cell line (A7r5) kept in similar conditions was also used to follow the peptide-induced effects on these cells grown over silicon sheet.
Live videomicroscopy was performed under controlled temperature and CO2 conditions using a Zeiss Axiovert 200M (Zeiss, Oberkochem, Germany), equipped with a spinning disk Nipkow confocal head (Yokogawa CSU10), Photometrics CoolSNAP-HQ CCD camera and Metamorph 6.0 acquisition software (Visitron Systems, Puchheim, Germany). […]

rat lung fibroblast (LF) = experiment: Cell contraction/relaxation on wrinkling silicone substrate, live videomicroscopy; format: cell-based; conditions: 10 μM and 50 μM
Description: To study the effect(s) of the peptides on muscle cells, which associate with neurosecretory cells at neuromuscular junctions, peptides were cultured with rat lung fibroblast (LF) grown over wrinkling substrate (silicon) which can mimic the effects of contraction. These cells have a myofibroblastic phenotype, e.g., production of TGF-β, which make them suitable for cellular contraction/relaxation studies.
Wrinkling silicone substrates were prepared as essentially described previously (Harris, et al., Science. 208:177-179, 1980; Hinz, et al., Mol Biol Cell. 12:2730-41, 2001). Briefly, 50 μl of silicone (poly dimethyl siloxane; 30.000 centistokes, Dow Corning, Midland, Mich.) were deposited onto a 35 mm round glass coverslip at the bottom of a self-made observation chamber, which was centrifuged at 1.000 rpm for 2 minutes to spread the viscous fluid. The silicone surface was then crosslinked by passing it through a Bunsen flame; a flaming time of 1 second produced a surface stiffness that restricted wrinkle formation to fibroblasts with high contractile force (Hinz et al., supra). The polymerized silicone surface was finally coated with 10 μg/ml collagen type I (Sigma) for 2 hours at 37° C. Lung fibroblast cells were seeded at a density of 3.5×10^3 cells/cm^2 and cultured for 1-2 days before the experiment. […]

Recombinant furin = Recombinant furin (Homo sapiens, UniProt P09958); experiment: biochemical; format: biochemical
Description: To determine if the peptides described herein have an effect on the activity of PC enzymes which are involved in a condition or disorder such as fibrosis, the effect of the peptides on furin activity in vitro was measured as percent inhibition of cleavage of the furin substrate fluorogenic t-butyloxycarbonyl (Boc)-RVRR-7-amino-4-methylcoumarin (MCA).
All in vitro enzyme studies were performed at room temperature in a final volume of 50-100 μl in 96-well flat-bottom black plates. The buffer consisted of 100 mM HEPES, 1 mM CaCl2, 0.5% TritonX-100, and 1 mM 2-β-mercaptoethanol pH 7.5. Assays were performed using Boc-RVRR-MCA as fluorogenic substrate at 100 μM. Recombinant furin (0.8 U of activity) was incubated with Boc-RVRR-MCA in the presence or absence of varying concentrations of synthetic peptides D-9Rac/am (SEQ ID NO. 15), L-Bel1 (SEQ ID NO. 3), or L-9K (SEQ ID NO. 6). One unit of activity is defined as the amount of furin that can release 1 μmol of MCA from the fluorogenic Boc-RVRR-MCA per min at 30° C. The release of highly fluorescent 7-amino 4-methyl coumarin (MCA) from the Boc-RVRR-MCA was monitored by a spectrofluorometer instrument at excitation and emission wavelengths of 370 nm/460 nm. […]

furin = target: T1, furin (Rattus norvegicus, UniProt P23377); format: biochemical
T1 construct: Furin activity was constitutively detected in PC12-ES cells; endogenous in cells; host or cells: PC12-ES cells (lysate)
Description: To monitor the intracellular furin activity, 80% confluent PC12-ES cells were washed twice with ice-cold phosphate-buffered saline (PBS1×) by centrifugation at 800×g for 5 minutes at 4° C., resuspended in 100 mM HEPES, 1 mM CaCl2, 0.5% TritonX-100, and 1 mM 2-β-mercaptoethanol, pH 7.5, sonicated 6 times at 4° C. for 10 seconds, and then centrifuged at 8000×g for 20 minutes at 4° C. The protein concentration in the samples was determined using a bicinchonic acid protein assay kit (Pierce Chemical Co.).
Intracellular furin activity was measured with a furin-specific fluorogenic substrate, t-butyloxycarbonyl (Boc)-[…]-7-amino-4-methylcoumarin (MCA). Briefly, the cell lysate (20 μg-60 μg of protein) prepared as described above was incubated with 100 μM Boc-RVRR-MCA in a 96-well flat-bottom black plate for at least 6 hours at room temperature and fluorescence measured by excitation at 365 nm and emission at 450 nm.

PC-12 cells = experiment: Actin cytoskeleton organization, phalloidin-TRITC staining; format: cell-based, rat
Description: Slides with PC-12 cells were prepared as stated previously for localization studies. Briefly, cells were exposed to FITC-labeled or unlabeled peptides, at various concentrations, for 30 minutes, fixed and then permeabilized. Subsequently, F-actin was fluorescently labeled with phalloidin-Tetramethyl Rhodamine Iso-Thiocyanate (TRITC) (Sigma Aldrich) conjugate, diluted on saponin buffer (0.25 μg/ml), and nuclear staining with DAPI dihydrochloride (Sigma Aldrich) (0.02 μg/ml), at room temperature for maximum 30 minutes. Finally, slides were mounted and sealed, and stored at 4° C. protected from light. The effect of the peptides to actin polymerization was analyzed by confocal microscopy, as described before.

PC12-ES cells = experiment: Evoked neurotransmitter secretion by undifferentiated PC12-ES cells, furin inhibitor and arginine rich peptides; format: cell-based, rat; conditions: potassium 80 mM, 15 minutes

CC(=O)NCC(=O)N[C@H](Cc1ccc(O)cc1)C(=O)NCC(=O)N[C@H](CCCNC(=N)N)C(=O)N[C@H](CCCNC(=N)N)C(=O)N[C@H](CCCNC(=N)N)C(=O)N[C@H](CCCNC(=N)N)C(=O)N[C@H](CCCNC(=N)N)C(=O)N[C@H](CCCNC(=N)N)C(=O)N[C@H](CCCNC(=N)N)C(=O)N[C@H](CCCNC(=N)N)C(=O)N[C@H](CCCNC(=N)N)C(=O)NCC(N)=O [D-9Rac/am] was tested, and the “myofibroblast-mediated collagen gel contraction” value (lung fibroblasts) was “decrease”, the “relaxing effect on smooth muscle cells” value [1] was “same effect” and the “relaxing effect on lung myofibroblasts on silicon substrate” value (rat lung fibroblast (LF)) was “slow but constant loss of silicon substrate wrinkles and cell detachment”. The “concentration for complete blockade of cleavage of Boc-RVRR-MCA by furin” value (Recombinant furin) was 0.7 µM, the “inhibition of in vitro furin activity (in words)” value (Recombinant furin; Boc-RVRR-MCA 100 μM as substrate) was “inhibited to completion” and the Ki (Recombinant furin; furin, Boc-RVRR-MCA substrate, read-out: Ki(app)) was 170 nM. For the same compound, the “concentration needed to block the intracellular furin activity measured in cell lysate” value (furin) was 100 µM, the “effect on actin content and organization at higher concentration” value (PC-12 cells; 100 μM) was “almost lost” and the “effect on actin content and organization” value (PC-12 cells; 2 to 10 μM, 30 minutes, labeled or unlabeled) was “decreased actin content and organization”. For the same compound, the “inhibition of evoked neurotransmitter secretion by PC12-ES cells” value (PC12-ES cells; 10 μM) was 52.4% and the “inhibition of evoked neurotransmitter secretion by PC12-ES cells” value (PC12-ES cells; 100 μM) was 76.2%.
